According to patent publication US20230374035A1, “RAS INHIBITORS” (Revolution Medicines, Inc., priority 2019, published 2023):

Columns and labels:
AsPC-1 (K-Ras G12D) = test: Potency assay: pERK; conditions: read-out: ASPC-1 pERK EC50
Capan-1 (K-Ras G12V) = test: Potency assay: pERK; conditions: read-out: Capan-1 pERK EC50
NCI-H358 (K-Ras G12C) = test: CellTiter-Glo Cell Viability Assay; conditions: read-out: H358 Cell Viability IC50; H358, 5-day treatment

Q: How did the EC50 (AsPC-1 (K-Ras G12D)) turn out when `CCn1c(-c2cccnc2[C@H](C)OC)c2c3cc(ccc31)-c1cc(O)cc(c1)C[C@H](NC(=O)[C@H](C(C)C)N(C)C(C)=O)C(=O)N1CCC[C@H](N1)C(=O)OCC(C)(C)C2` was run?
A: Its EC50 is 706 nM.

Q: And the EC50 (Capan-1 (K-Ras G12V))?
A: Its EC50 is 52 nM.

Q: What about the IC50 (NCI-H358 (K-Ras G12C)) of the same compound?
A: The IC50 was 226 nM.
